Source: article PMC9633773, “Discovering cell-active BCL6 inhibitors: effectively combining biochemical HTS with multiple biophysical techniques, X-ray crystallography and cell-based assays” (Scientific Reports, 2022)
pIC50, pKd: −log10 of the molar value.

Columns and labels:
BCL6 BTB domain [1] = molecular target: T1, BCL6 BTB domain (Homo sapiens, UniProt P41182); experiment: Surface plasmon resonance (SPR); settings: immobilised BCL6 BTB, pH 6.0, 1:1 equilibrium model; for pKd: read-out: SPR KD;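 on SPR KD: Fail means no measurable KD from unsaturated curves poor sensorgrams or non-1:1 stoichiometry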
HPLC aqueous solubility = settings: pH 7.4, PBS, 1% DMSO
BCL6 BTB [2] = molecular target: T2, BCL6 BTB (Homo sapiens, UniProt P41182); experiment: Thermal shift assay (TSA); settings: measured at 200 and 400 µM compound; binder if ≥ 1 °C
BCL6 BTB domain [3] = molecular target: T1, BCL6 BTB domain; experiment: Fluorescence polarisation (FP) competition assay with BCOR-AF633 peptide; settings: repurchased hits; for pIC50: read-out: FP IC50 Geometric Mean, up to 2 mM, n=1-6
[4] = molecular target: full-length BCL6/SMRT protein–protein interaction in HEK293T cells (Homo sapiens, UniProt P41182); experiment: NanoBRET cellular assay; assay type: cell-based
Trx-6His-BCL6 BTB = Trx-6His-BCL6 BTB (Homo sapiens, UniProt P41182); experiment: TR-FRET assay, Trx-6His-BCL6 BTB / BCOR-A633 peptide; assay type: biochemical; settings: 1 nM BCL6 BTB domain
NMR kinetic solubility = settings: 500 µM final compound concentration, 20 mM HEPES buffer pH 8, 2% or 5% DMSO
BCL6 BTB [5] = molecular target: T2, BCL6 BTB; experiment: 19F ligand-observed NMR TFA-WVIP-NH2 peptide displacement assay; assay type: binding; settings: 200 µM compound, 200 µM TFA-WVIP-NH2, 6 µM BCL6 BTB; mean ± SD, n=2; hit if ≥ 30%

Row | SPR KD (BCL6 BTB domain [1]) | Sol. (by HPLC, marked *) (HPLC aqueous solubility) [µM] | TSA Tm (thermal shift) (BCL6 BTB [2]) | pIC50 (BCL6 BTB domain [3]) | FP pIC50 Mean (BCL6 BTB domain [3]) | Nano BRET pIC50 mean ([4]; BCL6.NanoLuc/SMRT.HaloTag configuration, 6 h) | pIC50 ([4]; read-out: Nano BRET Geo Mean IC50, BCL6.NanoLuc/SMRT.HaloTag configuration, 6 h, geometric mean n=3–4) | TR-FRET pIC50 mean (Trx-6His-BCL6 BTB) | Sol. (NMR kinetic solubility) (NMR kinetic solubility) [µM] | pKd (BCL6 BTB domain [1]) | 19F LO-NMR, % peptide displaced (BCL6 BTB [5]) [%] | Structure (SMILES)
1 | Fail | 21 | 0 ºC | 3.72 | 3.72 |  |  |  |  |  |  | CN(Cc1ccc2c(c1)OCO2)c1nc2c(cnn2C(C)(C)C)c(=O)[nH]1
2 |  |  |  |  |  | 5.11 | 5.11 | 6.07 |  |  |  | Cn1c(=O)n(CCC(C)(C)O)c2cc(Nc3ccnc(Cl)c3C#N)ccc21
3 |  |  |  | 3.77 | 3.77 |  |  |  | < 30 |  |  | Fc1ccc(C2CC(c3cccc(Cl)c3)n3ncnc3N2)cc1 (stereo not shown)
4 |  |  | 1-3.5 ºC | 4.11 | 4.11 |  |  |  | 466 | 3.39 | 69.5 ± 8 | CC1CCc2nc(SCC(=O)NCC(=O)O)c(C#N)c(C(F)(F)F)c2C1 (stereo not shown)
5 |  |  |  | 4.10 | 4.10 |  |  |  | 494 | 2.98 | 75 ± 7 | CCC1CCc2nc(SCC(=O)NCC(=O)O)c(C#N)c(C(F)(F)F)c2C1 (stereo not shown)
6 |  |  | 0.5-1 ºC | 3.70 | 3.70 |  |  |  | 91 | 3.25 | 52 ± 3 | COc1ccc(C2CC(c3ccc(Cl)cc3)Nc3ncnn32)c(OC)c1OC (stereo not shown)
